US8580794B2 (AbbVie Inc., priority 2009, dated 2013)

Sequences of proteins named here, by UniProt entry; tags and fusion partners are left off.
UniProt P10415, whole entry: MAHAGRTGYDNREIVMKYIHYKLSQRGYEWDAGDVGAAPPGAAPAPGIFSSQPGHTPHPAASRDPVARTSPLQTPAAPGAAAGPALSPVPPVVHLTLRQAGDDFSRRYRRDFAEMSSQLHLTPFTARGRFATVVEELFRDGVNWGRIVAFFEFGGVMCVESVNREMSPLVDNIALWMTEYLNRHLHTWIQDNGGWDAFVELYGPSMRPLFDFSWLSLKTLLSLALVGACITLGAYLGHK

Target: GST-Bc1-2 (Homo sapiens, UniProt P10415)
Experiment: Time Resolved-Fluorescence Resonance Energy Transfer (TR-FRET) Bcl-2 binding assay with F-Bak peptide probe
Conditions: GST-Bcl-2 1 nM, F-Bak probe 100 nM, Tb-anti-GST 1 nM; '<' = below limit of detection

For `CC1(C)CCC(CN2CCN(c3ccc(C(=O)NS(=O)(=O)c4cnc(OC[C@H]5C[C@H]6C[C@@H]5C[C@@]6(C)O)c(Cl)c4)c(Oc4cnc5[nH]ccc5c4)c3)CC2)=C(c2ccc(Cl)cc2)C1` [Example 343, N-[(5-chloro-6-{[(1R,2S,4R,5R)-5-hydroxy-5-methylbicyclo[2.2.1]hept-2-yl]methoxy}pyridin-3-yl)sulfonyl]-4-(4-{[2-(4-chlorophenyl)-4,4-dimethylcyclohex-1-en-1-yl]methyl}piperazin-1-yl)-2-(1H-pyrrolo[2,3-b]pyridin-5-yloxy)benzamide], which Ki is on record?
The Ki was under 0.01 nM.

With `CC1(C)CCC(CN2CCN(c3ccc(C(=O)NS(=O)(=O)c4ccc(N[C@@H]5CCN(C6COC6)C5)c([N+](=O)[O-])c4)c(Oc4cnc5[nH]ccc5c4)c3)CC2)=C(c2ccc(Cl)cc2)C1` [Example 224, 4-(4-{[2-(4-chlorophenyl)-4,4-dimethylcyclohex-1-en-1-yl]methyl}piperazin-1-yl)-N-[(3-nitro-4-{[(3R)-1-(oxetan-3-yl)pyrrolidin-3-yl]amino}phenyl)sulfonyl]-2-(1H-pyrrolo[2,3-b]pyridin-5-yloxy)benzamide] as the compound, how does the Ki read?
Its Ki is under 0.01 nM.
